The values that follow come from PubChem BioAssay AID2429 (National Center for Advancing Translational Sciences (NCATS), 2010).

The chains behind the UniProt entries cited, without tags or fusion partners. Where a name states a change or a piece, a line headed by the entry shows the natural chain unless it says otherwise.
UniProt P15428: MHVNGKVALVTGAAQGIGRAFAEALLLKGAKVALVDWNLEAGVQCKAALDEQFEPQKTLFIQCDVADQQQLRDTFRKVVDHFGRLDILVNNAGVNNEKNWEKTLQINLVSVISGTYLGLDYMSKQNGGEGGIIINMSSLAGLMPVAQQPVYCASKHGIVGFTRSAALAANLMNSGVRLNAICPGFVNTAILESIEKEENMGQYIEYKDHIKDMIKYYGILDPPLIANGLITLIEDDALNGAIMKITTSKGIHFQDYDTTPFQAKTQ

Molecules are shown by their SMILES. The list shows a part of the results, in another mix than the full data. Active and inactive are the calls of the source. Calls come from the whole dose curve.

The target of the assay is 15-hydroxyprostaglandin dehydrogenase [NAD(+)] (Homo sapiens) (UniProt P15428). Briefly: Confirmation qHTS Assay for Inhibitors of HPGD (15-Hydroxyprostaglandin Dehydrogenase). The following applies: recombinant HPGD, NADH fluorescence, PGE2 substrate. The source says:
Assay Overview: Human 15-Hydroxyprostaglandin dehydrogenase (HPGD) catalyzes the inactivation of prostaglandin E2, and plays a major role in cancer biology by antagonizing the oncogenic potential of cyclooxygenase type 2 (COX2). Assays are available, based on absorbance/fluorescence increase of NADH with the substrate 15-OH prostaglandin E2. Inhibition of HPGD activity was screened by utilizing prostaglandin as an electron donor and NAD+ as an electron acceptor/cofactor. An increase in the fluorescence intensity due to conversion of NAD+ to NADH was used to measure the enzyme activity. This assay is a confirmation screen of primary qHTS protocol (See AID 894). References 1. Myung SJ, Rerko RM, Yan M, Platzer P, Guda K, Dotson A, Lawrence E, Dannenberg AJ, Lovgren AK, Luo G, Pretlow TP, Newman RA, Willis J, Dawson D, Markowitz SD. 15-Hydroxyprostaglandin dehydrogenase is an in vivo suppressor of colon tumorigenesis. Proc Natl Acad Sci U S A. 2006 Aug 8;103(32):12098-102. 2. […]
Buffer: 50 mM Tris-HCl, 0.01% Tween 20, pH 8. […] The plates were immediately transferred to and read 5 times every 30 seconds on ViewLux High-throughput CCD imager (Perkin-Elmer) using 360 nm excitation and 450 nm emission fluorescence protocol. The fluorescence intensity difference between the last and the first time points was used to compute reaction progress.

Take `N#Cc1ccccc1CSc1nc2ncc(Br)cc2[nH]1`: the Potency is active: 141 nM.
